What is called EC50 is the concentration giving half of the maximal effect.

The chains behind the UniProt entries cited, without tags or fusion partners.
UniProt P21728, whole entry: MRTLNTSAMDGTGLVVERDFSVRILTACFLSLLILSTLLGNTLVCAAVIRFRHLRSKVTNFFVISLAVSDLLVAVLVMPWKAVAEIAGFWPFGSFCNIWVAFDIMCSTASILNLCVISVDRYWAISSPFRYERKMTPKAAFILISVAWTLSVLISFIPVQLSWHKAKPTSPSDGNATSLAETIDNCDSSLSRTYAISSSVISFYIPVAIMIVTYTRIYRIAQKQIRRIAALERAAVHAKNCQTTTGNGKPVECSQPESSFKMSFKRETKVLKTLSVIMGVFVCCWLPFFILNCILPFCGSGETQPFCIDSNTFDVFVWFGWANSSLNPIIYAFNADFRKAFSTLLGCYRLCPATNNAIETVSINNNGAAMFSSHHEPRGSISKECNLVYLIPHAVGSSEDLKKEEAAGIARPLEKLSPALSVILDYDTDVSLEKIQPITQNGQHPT

The target in experiment [1] is T1, D(1A) dopamine receptor (Homo sapiens, UniProt P21728). The experiment can be described thus: Agonist activity at recombinant human D1 receptor expressed in HEK29T cells assessed as induction of stimulatory G-protein-mediated cAMP accumulation measured after 15 mins by Glosensor-based FLIPR assay. Type of experiment: functional, cell-based. The gist of the method:
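GloSensor-22F cAMP biosensor in HEK293T cells co-expressing human D1, seeded in DMEM + 1% dialyzed FBS; next day GloSensor reagent equilibrated ≥15 min at room temperature in HBSS/20 mM HEPES pH 7.4, then drug added in HBSS/HEPES/0.1% BSA/0.01% ascorbic acid. Luminescence read after 15 min; normalized to dopamine maximum (100%); sigmoidal fit; maximum tested 10⁻⁴ M; ≥3 experiments in triplicate.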

The target in experiment [2] is T1, D(1A) dopamine receptor. Briefly: Agonist activity at recombinant C-terminal RLuc8-fused human D1 receptor expressed in HEK29T cells co-expressing N-terminal Venus-tagged beta-arrestin2 assessed as increase in beta-arrestin2 recruitment measured after 15 mins in presence of coelenterazine H by BRET assay. Type of experiment: cell-based. Background: Activated receptors often draw arrestin, which recruitment assays turn into a signal.

For `Cc1cc(Oc2nccn3cccc23)ccc1-c1c(C)ncc2nccn12`, the EC50 was determined as 0.87 nM in experiment [1] and 690 nM in experiment [2].

(Values after ChEMBL document CHEMBL4390674, “Defining Structure-Functional Selectivity Relationships (SFSR) for a Class of Non-Catechol Dopamine D1 Receptor Agonists” (J Med Chem, 2019).)
